Laboratory results from PubChem BioAssay AID1194 (EPA DSSTox, 2008).
Activity calls are given as the source filed them.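 How the source made its calls: active means chemicals rated mutagenic or weakly mutagenic in the Salmonella bacterial test by one literature review, or positive overall by another; inconclusive means no clear call, values can overlap the other calls; inactive means the rest.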

System: Salmonella typhimurium Ames mutagenicity, literature compiled
Experiment: DSSTox (CPDBAS) Carcinogenic Potency Database Salmonella Mutagenicity
From the text: The Carcinogenic Potency Database (CPDB) is a unique and widely used international resource of the results of over 6500 chronic, long-term animal cancer tests on over 1500 chemical substances. The CPDB provides easy access to the bioassay literature, with qualitative and quantitative analyses of both positive and negative experiments that have been published over the past 50 years in the general literature and by the National Cancer Institute/National Toxicology Program. The CPDB standardizes the diverse literature of cancer bioassays that vary widely in protocol, histopathological examination and nomenclature, and in the published author's choices of what information to provide in their papers. Results are reported in the CPDB for tests in rats, mice, hamsters, dogs, and nonhuman primates, and are based on the most positive result among all experiments for each sex-species. The DSSTox CPDBAS (all species) file incorporates data from the CPDB Summary Tables for the full list of over 1500 chemical substances tested in at least one species.
A chemical is classified within the CPDB as mutagenic, i.e. "active", in the Salmonella assay if it was evaluated overall as either "mutagenic" or "weakly mutagenic" by Zeiger [Zeiger, E. (1997) Genotoxicity Database. In: Gold and Zeiger, Eds. Handbook of Carcinogenic Potency and Genotoxicity Databases. Boca Raton, FL: CRC Press, pp. 687-729. http://potency.berkeley.edu/CRCbook.html] or as overall "positive" by the EPA Gene-Tox Program [Kier et al. (1986) Mutat. Res. 168: 69-240].

Row | Compound | outcome
1 | NC(=O)Nc1ccc([As](=O)(O)O)cc1 | inactive; active
2 | C1CN1 | active; inactive
3 | O=C1C2CC=CCC2C(=O)N1SC(Cl)(Cl)C(Cl)Cl (stereo not given) | inactive; active
4 | COP(=O)(OC)N1CCOCC1 | inactive; active
5 | CN(N=O)C(=N)N[N+](=O)[O-] | active
